Measurements from paper PMC3909575, “Purification and characterization of an extracellular laccase from solid-state culture of Pleurotus ostreatus HP-1” (2013).

System: laccase
Test: inhibition kinetics of purified laccase, Lineweaver-Burk

## [N-]=[N+]=N
  Ki: 16.5 µM
